Measurements: publication PMC5891061, “Electrophysiological mechanisms of vandetanib-induced cardiotoxicity: Comparison of action potentials in rabbit Purkinje fibers and pluripotent stem cell-derived cardiomyocytes” (PLoS ONE, 2018)
“Also recorded” adds a separate entry of the source.

Chains of the proteins cited; added tags and fusions are not shown. Lines headed by an entry give the natural chain unless they say otherwise; changes in a name come on top.
UniProt Q12809: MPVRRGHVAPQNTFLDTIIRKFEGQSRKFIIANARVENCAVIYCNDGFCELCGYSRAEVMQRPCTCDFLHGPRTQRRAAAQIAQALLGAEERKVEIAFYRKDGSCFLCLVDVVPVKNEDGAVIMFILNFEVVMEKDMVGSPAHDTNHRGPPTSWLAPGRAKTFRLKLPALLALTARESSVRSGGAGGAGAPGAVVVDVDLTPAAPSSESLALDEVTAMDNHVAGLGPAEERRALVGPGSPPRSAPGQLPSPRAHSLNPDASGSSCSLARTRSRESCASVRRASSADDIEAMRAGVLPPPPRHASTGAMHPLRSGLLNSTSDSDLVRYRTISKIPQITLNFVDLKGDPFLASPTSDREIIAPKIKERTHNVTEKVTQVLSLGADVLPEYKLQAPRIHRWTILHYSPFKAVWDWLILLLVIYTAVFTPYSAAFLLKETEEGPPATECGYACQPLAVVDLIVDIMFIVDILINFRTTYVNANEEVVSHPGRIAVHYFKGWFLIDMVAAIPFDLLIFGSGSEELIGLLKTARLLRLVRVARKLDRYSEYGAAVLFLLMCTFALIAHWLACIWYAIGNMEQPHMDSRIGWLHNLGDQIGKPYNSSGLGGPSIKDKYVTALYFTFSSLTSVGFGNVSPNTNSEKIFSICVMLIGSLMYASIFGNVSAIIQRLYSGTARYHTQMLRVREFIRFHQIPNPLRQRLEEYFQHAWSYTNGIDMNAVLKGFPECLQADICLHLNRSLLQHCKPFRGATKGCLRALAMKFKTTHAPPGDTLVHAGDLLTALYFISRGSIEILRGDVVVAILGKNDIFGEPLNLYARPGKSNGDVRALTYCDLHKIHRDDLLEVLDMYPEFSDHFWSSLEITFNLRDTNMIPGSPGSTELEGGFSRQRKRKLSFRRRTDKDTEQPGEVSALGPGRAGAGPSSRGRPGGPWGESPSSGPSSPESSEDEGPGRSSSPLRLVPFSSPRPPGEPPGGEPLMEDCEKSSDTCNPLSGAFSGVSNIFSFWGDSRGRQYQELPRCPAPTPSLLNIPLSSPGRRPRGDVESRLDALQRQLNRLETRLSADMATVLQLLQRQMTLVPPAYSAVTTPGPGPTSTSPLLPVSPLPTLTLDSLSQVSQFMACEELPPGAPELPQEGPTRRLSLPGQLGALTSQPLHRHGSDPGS

Columns and labels:
KCNJ2 (IK1) = target: T1, KCNJ2 (IK1) (Homo sapiens, UniProt P63252)
T1 sequence (P63252 1-427): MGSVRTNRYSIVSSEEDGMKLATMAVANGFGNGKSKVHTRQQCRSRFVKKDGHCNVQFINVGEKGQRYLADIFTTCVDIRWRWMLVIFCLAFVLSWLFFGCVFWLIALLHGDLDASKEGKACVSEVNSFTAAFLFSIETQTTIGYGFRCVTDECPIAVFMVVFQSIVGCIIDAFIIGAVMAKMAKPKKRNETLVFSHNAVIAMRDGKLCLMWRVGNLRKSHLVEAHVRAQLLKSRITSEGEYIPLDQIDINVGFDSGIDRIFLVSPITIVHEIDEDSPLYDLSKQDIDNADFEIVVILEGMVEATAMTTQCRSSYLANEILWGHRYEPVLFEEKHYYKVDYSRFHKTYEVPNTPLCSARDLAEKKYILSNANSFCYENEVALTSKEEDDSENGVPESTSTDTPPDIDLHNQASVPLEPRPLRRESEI

hERG (IKr) = hERG (IKr) (Homo sapiens, UniProt Q12809); experiment: Whole-cell patch clamp, IhERG tail current in transfected HEK293 cells

In the case of `COc1cc2c(Nc3ccc(Br)cc3F)ncnc2cc1OCC1CCN(C)CC1` [Vandetanib], the “Effect on IK1 currents” value (KCNJ2 (IK1)) was “not significantly modified; also recorded: No effect”, the IhERG current (hERG (IKr); 0.3 μM) was 1125.9 ± 194.1 and the IhERG current (hERG (IKr); 3 μM) was 319.6 ± 47.4.
